The target in this experiment is T1, 70-kDa activated matriptase (Homo sapiens, UniProt Q9Y5Y6).
T1 sequence (Q9Y5Y6 615-855 limits assumed): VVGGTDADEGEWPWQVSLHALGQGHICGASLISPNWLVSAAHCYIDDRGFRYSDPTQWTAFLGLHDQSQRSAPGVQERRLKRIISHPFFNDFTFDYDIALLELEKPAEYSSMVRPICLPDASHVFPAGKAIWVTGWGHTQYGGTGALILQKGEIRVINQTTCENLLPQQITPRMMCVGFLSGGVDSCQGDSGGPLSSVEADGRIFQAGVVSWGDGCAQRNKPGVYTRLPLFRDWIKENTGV
T1 sequence (Q9Y5Y6 190-614 partner limits assumed): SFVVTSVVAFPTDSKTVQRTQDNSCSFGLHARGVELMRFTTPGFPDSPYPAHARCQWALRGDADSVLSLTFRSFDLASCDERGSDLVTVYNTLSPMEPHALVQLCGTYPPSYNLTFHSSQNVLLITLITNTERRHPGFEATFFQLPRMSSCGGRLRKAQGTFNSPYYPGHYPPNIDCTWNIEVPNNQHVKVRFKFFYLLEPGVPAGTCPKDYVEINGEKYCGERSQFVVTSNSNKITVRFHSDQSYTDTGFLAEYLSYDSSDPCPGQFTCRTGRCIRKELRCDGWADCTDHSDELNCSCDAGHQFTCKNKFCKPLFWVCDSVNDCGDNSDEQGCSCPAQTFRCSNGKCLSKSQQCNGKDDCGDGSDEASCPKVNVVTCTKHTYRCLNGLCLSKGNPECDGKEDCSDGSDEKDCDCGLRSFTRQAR
Put plainly: Matriptase inhibition, fluorescent substrate N-t-Boc-Gln-Ala-Arg-AMC, Ki by Dixon plots.

With `CC[C@H](C)[C@@H]1NC(=O)[C@@H]2CCCN2C(=O)[C@@H]2CCCN2C(=O)[C@H]([C@@H](C)CC)NC(=O)[C@H](CO)NC(=O)[C@H](CCCCN)NC(=O)[C@H]([C@@H](C)O)NC(=O)[C@@H]2CSSC[C@H](NC1=O)C(=O)N[C@@H](Cc1ccccc1)C(=O)N1CCC[C@H]1C(=O)N[C@@H](CC(=O)O)C(=O)NCC(=O)N[C@@H](CCCNC(=N)N)C(=O)N2` [SFTI-1], the Ki is 0.92 nM.

(Values after patent US7439226B2, “Serine protease inhibitors” (The United States of America as represented by the …, priority 2003, dated 2008).)
